From patent publication EP4831169A1, “NOVEL COMPOUND USED AS CBP/P300 INHIBITOR, AND PHARMACEUTICAL COMPOSITION FOR PREVENTING OR TREATING CANCER, INFLAMMATORY DISORDERS, OR AUTOIMMUNE DISEASES COMPRISING SAME AS ACTIVE INGREDIENT” (dated 2026)

Protein sequences, listed by entry. Tags and fused reporters are not part of them. Residues count along the entry.
UniProt Q92793, 1085-1192 limits assumed: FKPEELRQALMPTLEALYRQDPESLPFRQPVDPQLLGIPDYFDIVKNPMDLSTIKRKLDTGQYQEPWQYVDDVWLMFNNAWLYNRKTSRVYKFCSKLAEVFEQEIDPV

Key:
[1] = target: BRD4 (BD1) protein (Homo sapiens, UniProt O60885); assay: BRD4 bromodomain TR-FRET inhibitory activity assay; details: read-out: BRD4 (BD1) IC50, Table 4
[2] = target: CBP BRD protein (Homo sapiens, UniProt Q92793); assay: CBP bromodomain TR-FRET inhibitory activity assay; details: read-out: CBP BRD IC50, Table 3

SMILES | IC50 [1] | IC50 [2]
COc1ccc(-c2cc3nc(-c4cncn4C)n(-c4cc(C5CCOCC5)c5c(c4)n(C)c(=O)n5C)c3cc2F)cc1Cl | > 5000 nM | 500 to 5000 nM
CN(C)CCn1cc(-c2cc3nc(C(C)(C)C)n(-c4cc(N5CC(C)(N(C)C)C5)c5c(c4)n(C)c(=O)n5C)c3cc2C(F)F)cn1 | > 5000 nM | < 500 nM
Cn1cc(-c2cc3nc(C(C)(C)C)n(-c4cc(N5CCC6(CC5)OCCO6)c5c(c4)n(C)c(=O)n5C)c3cc2C(F)F)cn1 | > 5000 nM | < 500 nM
Cn1cc(-c2cc3nc(C(C)(C)C)n(-c4cc(N5CCC5)c5c(c4)n(C)c(=O)n5C)c3cc2C#N)cn1 | > 5000 nM | < 500 nM
COc1cc2c(cc1-c1cnn(C)c1)nc(C(C)(C)C)n2-c1cc(N2CCOCC2)c2c(c1)n(C)c(=O)n2C | > 5000 nM | < 500 nM
Cc1noc(-c2cc3nc(-c4cncn4C)n(-c4cc(NC(C)C)c5c(c4)n(C)c(=O)n5C)c3cc2F)n1 | > 5000 nM | < 500 nM
CCn1cc(-c2cc3nc(C(C)(C)C)n(-c4cc(N5CCOCC5)c5c(c4)n(C)c(=O)n5C)c3cc2C(F)F)cn1 | > 5000 nM | < 500 nM
CC(C)c1cc(-n2c(C(C)(C)C)nc3cc(-c4cnn(C)c4)c(F)cc32)cc2c1n(C)c(=O)n2C | > 5000 nM | < 500 nM
C#CC(C)(C)c1nc2cc(-c3cnn(C)c3)c(F)cc2n1-c1cc(C(C)C)c2c(c1)n(C)c(=O)n2C | > 5000 nM | < 500 nM
Cn1cc(-c2cc3nc(C(C)(C)C)n(-c4cc(Oc5ccc(F)cc5)c5c(c4)n(C)c(=O)n5C)c3cc2C(F)F)cn1 | > 5000 nM | < 500 nM
CC(C)CNc1cc(-n2c(-c3cncn3C)nc3cc(-c4cnn(C)c4)c(F)cc32)cc2c1n(C)c(=O)n2C | > 5000 nM | < 500 nM
Cc1ncc(-c2cc3nc(C(C)(C)C)n(-c4cc(N5CC(C)(O)C5)c5c(c4)n(C)c(=O)n5C)c3cc2C#N)s1 | > 5000 nM | < 500 nM
Cc1ncc(-c2cc3nc(C(C)(C)C)n(-c4cc(N5CCOCC5)c5c(c4)n(C)c(=O)n5C)c3cn2)s1 | > 5000 nM | < 500 nM
CN1CCC(Oc2cc(-n3c(C(C)(C)C)nc4cc(-c5cnn(C)c5)c(F)cc43)cc3c2n(C)c(=O)n3C)CC1 | > 5000 nM | < 500 nM
CC(O)c1cc(-n2c(-c3cncn3C)nc3cc(-c4cnn(C)c4)c(F)cc32)cc2c1n(C)c(=O)n2C (stereo not shown) | > 5000 nM | 500 to 5000 nM
CC(C)n1cc(-c2cc3nc(C(C)(C)C)n(-c4cc(N5CC(C)(O)C5)c5c(c4)n(C)c(=O)n5C)c3cc2C(F)(F)F)cn1 | > 5000 nM | < 500 nM
Cc1cc2nc(-c3cncn3C)n(-c3cc(NC(C)C)c4c(c3)n(C)c(=O)n4C)c2cc1F | > 5000 nM | 500 to 5000 nM
Cn1cc(-c2cc3nc(-c4cncn4C)n(-c4cc(OC5CCOCC5)c5c(c4)n(C)c(=O)n5C)c3cc2F)cn1 | > 5000 nM | < 500 nM
C[C@H]1COCCN1c1cc(-n2c(C(C)(C)C)nc3cc(-c4cnn(C)c4)c(F)cc32)cc2c1n(C)c(=O)n2C | > 5000 nM | < 500 nM
Cn1cc(-c2cc3nc(-c4cncn4C)n(-c4cc(N5CC6CC(C5)O6)c5c(c4)n(C)c(=O)n5C)c3cc2F)cn1 | > 5000 nM | < 500 nM
COc1ccccc1-c1cc(-n2c(-c3cncn3C)nc3cc(-c4cnn(C)c4)c(F)cc32)cc2c1n(C)c(=O)n2C | > 5000 nM | < 500 nM
CNC(=O)c1ccc(-c2cc3nc(-c4cncn4C)n(-c4cc(C5CCOCC5)c5c(c4)n(C)c(=O)n5C)c3cc2F)cc1F | > 5000 nM | < 500 nM
Cn1cc(-c2cc3nc(C(C)(C)C)n(-c4cc(N5CC(C)(NC(=O)OC(C)(C)C)C5)c5c(c4)n(C)c(=O)n5C)c3cc2C(F)F)cn1 | > 5000 nM | < 500 nM
Cn1cc(-c2cc3nc(-c4cncn4C)n(-c4cc(N5CCC(F)(F)C5)c5c(c4)n(C)c(=O)n5C)c3cc2F)cn1 | > 5000 nM | < 500 nM
CC(C)Nc1cc(-n2c(C(C)(C)C)nc3cc(-c4ccnc(N)c4)c(F)cc32)cc2c1n(C)c(=O)n2C | > 5000 nM | 500 to 5000 nM
Cn1cc(-c2cc3nc(C(C)(C)C)n(-c4cc(N5CCOCC5)c5c(c4)n(C)c(=O)n5C)c3cc2F)cn1 | > 5000 nM | < 500 nM
Cn1cc(-c2cc3nc(-c4cncn4C)n(-c4cc(N5CC(F)(F)C5)c5c(c4)n(C)c(=O)n5C)c3cc2C(F)(F)F)cn1 | > 5000 nM | < 500 nM
COc1ccc(-c2cc(-n3c(-c4cncn4C)nc4cc(-c5cnn(C)c5)c(F)cc43)cc3c2n(C)c(=O)n3C)cc1 | > 5000 nM | < 500 nM
Cc1ccc2c(-c3nc4cc(-c5cnn(C)c5)c(C(=O)O)cc4n3-c3ccc4c(c3)n(C)c(=O)n4C)c[nH]c2c1 | > 5000 nM | < 500 nM

Further lines, results first:

IC50 [1] | IC50 [2] | SMILES
500 to 5000 nM | < 500 nM | Cn1cc(-c2cc3nc(C(C)(C)C)n(-c4cc(N5CCC(C)(O)CC5)c5c(c4)n(C)c(=O)n5C)c3cc2C(F)(F)F)cn1
> 5000 nM | < 500 nM | CNC(=O)c1ccc(-c2cc3nc(-c4cncn4C)n(-c4ccc5c(c4)n(C)c(=O)n5C)c3cn2)cc1F
500 to 5000 nM | < 500 nM | Cn1cc(-c2cc3nc(-c4cncn4C)n(-c4cc(N5CC(O)(C(F)(F)F)C5)c5c(c4)n(C)c(=O)n5C)c3cc2C(F)F)cn1
> 5000 nM | < 500 nM | Cn1cc(-c2cc3nc(C(C)(C)C)n(-c4ccc5c(c4)n(C)c(=O)n5C)c3cc2F)cn1
500 to 5000 nM | 500 to 5000 nM | COC(=O)c1cc2c(cc1Br)nc(-c1cncn1C)n2-c1ccc2c(c1)n(C)c(=O)n2C
> 5000 nM | > 5000 nM | CC(C)c1cc(-n2c(C(C)(C)c3ccccc3)nc3cc(-c4cnn(C)c4)c(F)cc32)cc2c1n(C)c(=O)n2C
500 to 5000 nM | < 500 nM | CCC(C)Nc1cc(-n2c(-c3cncn3C)nc3cc(-c4cnn(C)c4)c(F)cc32)cc2c1n(C)c(=O)n2C (stereo not shown)
> 5000 nM | < 500 nM | CC(C)Oc1cc(-n2c(-c3cncn3C)nc3cc(-c4cnn(C)c4)c(C(F)(F)F)cc32)cc2c1n(C)c(=O)n2C
> 5000 nM | < 500 nM | CC(C)Oc1cc(-n2c(C(C)(C)C)nc3cc(-c4cnn(C)c4)c(F)cc32)cc2c1n(C)c(=O)n2C
500 to 5000 nM | < 500 nM | Cn1cc(-c2cc3nc(C(C)(C)C)n(-c4cc(N5CCC(C)(O)CC5)c5c(c4)n(C)c(=O)n5C)c3cc2Cl)cn1
> 5000 nM | < 500 nM | Cn1cc(-c2cc3nc(C(C)(C)C)n(-c4cc(N5CC(C)(O)C5)c5c(c4)n(C)c(=O)n5C)c3cc2N)cn1
500 to 5000 nM | < 500 nM | COC(=O)c1cc2c(cc1-c1cnn(C)c1)nc(-c1cncn1C)n2-c1ccc2c(c1)n(C)c(=O)n2C
> 5000 nM | < 500 nM | Cn1cc(-c2cc3nc(-c4cncn4C)n(-c4cc(NC5CCC5)c5c(c4)n(C)c(=O)n5C)c3cc2F)cn1
500 to 5000 nM | < 500 nM | COC1(C)CN(c2cc(-n3c(-c4cncn4C)nc4cc(-c5cnn(C)c5)c(C(F)F)cc43)cc3c2n(C)c(=O)n3C)C1
> 5000 nM | < 500 nM | COC1(C)CN(c2cc(-n3c(C(C)(C)C)nc4cc(-c5cnn(C)c5)c(C(F)F)cc43)cc3c2n(C)c(=O)n3C)C1
> 5000 nM | < 500 nM | Cn1cc(-c2cc3nc(C(C)(C)C)n(-c4cc(NCC5(C)COC(=O)N5)c5c(c4)n(C)c(=O)n5C)c3cc2C(F)F)cn1 (stereo not shown)
> 5000 nM | < 500 nM | Cn1cc(-c2cc3nc(-c4cncn4C)n(-c4cc(OCC5CCOCC5)c5c(c4)n(C)c(=O)n5C)c3cc2F)cn1
> 5000 nM | < 500 nM | Cn1cc(-c2cc3nc(-c4cncn4C)n(-c4cc(N5CCN(C(=O)OC(C)(C)C)CC5)c5c(c4)n(C)c(=O)n5C)c3cc2F)cn1
500 to 5000 nM | < 500 nM | Cn1cncc1-c1nc2cc(-c3ccc4c(c3)CC(=O)N4)c(F)cc2n1-c1cc(C2CCOCC2)c2c(c1)n(C)c(=O)n2C
500 to 5000 nM | < 500 nM | Cn1cncc1-c1nc2cc(-c3ccc4[nH]c(=O)ccc4c3)c(F)cc2n1-c1cc(C2CCOCC2)c2c(c1)n(C)c(=O)n2C
500 to 5000 nM | < 500 nM | CC(=O)Nc1ccc(-c2cc3nc(-c4cncn4C)n(-c4ccc5c(c4)n(C)c(=O)n5C)c3cc2F)cc1
500 to 5000 nM | < 500 nM | Cn1cc(-c2cc3nc(-c4cncn4C)n(-c4cc(N5CC(C)(C)C5)c5c(c4)n(C)c(=O)n5C)c3cc2F)cn1
500 to 5000 nM | < 500 nM | Cc1ccc2c(-c3nc4cc(-c5cnn(C)c5)c(CO)cc4n3-c3ccc4c(c3)n(C)c(=O)n4C)c[nH]c2c1
500 to 5000 nM | < 500 nM | Cn1cc(-c2cc3nc(-c4cncn4C)n(-c4cc(N5C[C@@H]6C[C@H]5CO6)c5c(c4)n(C)c(=O)n5C)c3cc2F)cn1
